For assay [1], the target named is Gelatinase (MMP-2) (Homo sapiens, UniProt P08253). The assay can be described thus: Gelatinase (MMP-2) inhibitory activity, fluorogenic peptide substrate cleavage. The settings on record: read-out: MMP02 IC50. How it is done:
(§1) Gelatinase (MMP-2) inhibitory activities can be determined as follows: Stock solutions of substrate (MCA-Lys-Pro-Leu-Gly-Leu-Dpa-Ala-Arg-NH2) are prepared in DMSO at a concentration of 1.4 mM. Stock solutions of inhibitors (0.03 μM-3 mM) are also prepared in DMSO. The inhibitors are diluted into the assay solutions, and the controls use an equal volume of DMSO so that the final DMSO concentration from the inhibitor and substrate dilutions in all assays is 1.0%. Assays are performed in an assay buffer (100 mM sodium chloride, 10 μM ZnCl. Sub 2, 10 mM CaCl2, 100 mM Tris-Cl pH7.5, 0.05% Brij-35), containing 1.0% DMSO from the substrate and inhibitor additions. The substrate concentration used in the assays is 5 μM. The assays are carried out at 20-25° C. The fluorescence changes, as a result of substrate cleavage, are monitored using an excitation wavelength of 325 nm and an emission wavelength of 405 nm. The reaction mixtures are added in duplicate into appropriate wells of a 384-well assay plate. The reaction mixtures are preincubated with the inhibitors for 60 minutes The reactions are started by the addition of MMP substrate, and the fluorescence intensity changes are measured after 60 minutes The apparent enzyme activity in the presence of an inhibitor is then compared with that in the absence of any inhibitor to determine the inhibition effect of the inhibitor. […]

Chains of the proteins cited; added tags and fusions are not shown. Residues count along the entry.
UniProt P08253, 110-660 limits assumed: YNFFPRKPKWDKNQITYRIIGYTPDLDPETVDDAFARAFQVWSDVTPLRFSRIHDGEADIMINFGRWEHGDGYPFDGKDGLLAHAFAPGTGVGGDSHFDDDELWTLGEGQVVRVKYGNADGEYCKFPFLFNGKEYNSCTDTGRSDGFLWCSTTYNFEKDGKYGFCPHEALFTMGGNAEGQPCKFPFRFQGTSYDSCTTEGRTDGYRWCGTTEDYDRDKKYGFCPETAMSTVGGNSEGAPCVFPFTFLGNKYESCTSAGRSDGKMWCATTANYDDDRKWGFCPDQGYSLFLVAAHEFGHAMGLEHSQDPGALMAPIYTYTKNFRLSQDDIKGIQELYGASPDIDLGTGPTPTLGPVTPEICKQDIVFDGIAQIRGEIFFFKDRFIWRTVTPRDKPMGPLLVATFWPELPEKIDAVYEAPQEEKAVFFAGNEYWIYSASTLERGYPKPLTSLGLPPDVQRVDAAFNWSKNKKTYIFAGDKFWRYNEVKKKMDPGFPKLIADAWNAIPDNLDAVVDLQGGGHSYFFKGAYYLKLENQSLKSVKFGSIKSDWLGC

For assay [2], the target named is Collagenase-3 (MMP-13) (Homo sapiens, UniProt P45452). The assay can be described thus: Collagenase-3 (MMP-13) inhibitory activity, fluorogenic peptide substrate cleavage. The settings on record: read-out: MMP13 IC50. How it is done: as §1, with “The reaction mixtures are added in duplicate into appropriate wells of a 384-well assay plate.” left out
Collagenase-3 (MMP-13) inhibitory activity is determined as described above. […]

Some results are limits rather than exact numbers.

In general, IC50 refers to the concentration that inhibits the measured activity by half. `NS(=O)(=O)c1cc(C(=O)c2ccc(OCCO)cc2)ccc1Cl` [Example 16]: the figures for the half-inhibitory concentration (IC50) in assay [1] and in assay [2] were 5.94 µM and 4.9 µM, respectively.

For the molecule `NS(=O)(=O)c1cc(C(=O)c2ccc(OCCO)cc2)ccc1Cl` [Example 57], the half-inhibitory concentration (IC50) in assay [1] was above 30 µM; in assay [2], 21.2 µM.

The values are drawn from patent publication US20130096105A1, “ArylSulfonamide Based Matrix Metalloprotease Inhibitors” (NOVARTIS AG, priority 2008, published 2013).
